Experimental data published in BindingDB's records for doi:10.1016/j.str.2004.10.004 (Plexxikon, 2004).

Assays:
[1] = molecular target: cAMP-specific 3',5'-cyclic phosphodiesterase 4D [372-376,381-715,S375G,I381V,S383G,G384S,V385H,K386M) (Homo sapiens, UniProt Q08499, S375G/I381V/S383G/G384S/V385H/K386M); assay: Phosphodiesterase (PDE) Inhibition Assay
[2] = molecular target: T1, cAMP-specific 3',5'-cyclic phosphodiesterase 4B [316-320,321-700,S319G,N320S,N321H,T322M] (Homo sapiens, UniProt Q07343, S319G/N320S/N321H/T322M); assay: Phosphodiesterase (PDE) Inhibition Assay
T1 construct: 316-320,321-700

Compound: CN1CC(=O)N2[C@H](c3ccc4c(c3)OCO4)c3[nH]c4ccccc4c3C[C@@H]2C1=O
- pIC50 [1]: 4.72
- pIC50 [2]: 5.04

pIC50: −log10 of the molar value.
